{
  "sequences": {"note": "Amino acid sequences for entries named in this document (tags omitted).", "UniProt P10415, whole entry": "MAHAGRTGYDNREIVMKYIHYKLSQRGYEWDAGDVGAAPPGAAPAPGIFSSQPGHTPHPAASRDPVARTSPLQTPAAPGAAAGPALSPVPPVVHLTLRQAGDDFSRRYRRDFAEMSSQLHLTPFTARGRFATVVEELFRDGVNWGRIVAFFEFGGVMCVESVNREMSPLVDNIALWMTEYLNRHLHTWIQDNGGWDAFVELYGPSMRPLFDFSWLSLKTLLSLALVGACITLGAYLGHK"},
  "source": "patent US20250034135A1",
  "about": "“ANTI-APOPTOTIC PROTEIN BCL-2 INHIBITOR, PHARMACEUTICAL COMPOSITION AND USES THEREOF” (HANGZHOU HEALZEN THERAPEUTICS CO., LTD., priority 2021, published 2025)",
  "molecular_target": "BCL2 (Homo sapiens (Human), UniProt P10415)",
  "test": "Molecular level activity test of anti-apoptotic protein BCL2 (HTRF, binding to Bim peptide)",
  "settings": "read-out: BCL2 nM (inhibitory activity, IC50)",
  "data": [
    {"smiles": "CC(C)c1ccccc1[C@@H]1CCCN1C1CC2(CCN(c3ccc(C(=O)NS(=O)(=O)c4cc([N+](=O)[O-])c(NC[C@H]5CC[C@](C)(O)CC5)c5[nH]cnc45)c(Oc4cnc5[nH]ccc5c4)c3)CC2)C1", "values": [
      {"measurement": "IC50", "result": "< 10", "unit": "nM"}
    ]},
    {"smiles": "CC(C)c1ccccc1[C@@H]1CN(Cc2cccnc2)CCN1C1CC2(CCN(c3cc(Oc4cnc5[nH]ccc5c4)c(C(=O)NS(=O)(=O)c4ccc(NCC5(F)CCOCC5)c([N+](=O)[O-])c4)cc3F)CC2)C1", "values": [
      {"measurement": "IC50", "result": "< 10", "unit": "nM"}
    ]}
  ]
}
